{
  "source": "patent US10918643B2",
  "about": "“No-donors for the treatment of cerebrovascular vasospasms after brain hemorrhage” (Westfaelische Wilhelms-Universitaet Muenster, priority 2015, dated 2021)",
  "assay": "Monitoring of MAP, ICP and side effects in the SAH patient",
  "format": "in vivo, human",
  "conditions": "each SNP bolus",
  "note": "Only a part of the results on these compounds is given; other tests are left out.",
  "data": [
    {"substance": "sodium nitroprusside", "values": [
      {"measurement": "met-hemoglobin in blood gases / clinical signs of cyanide poisoning", "result": "without a rise of met-hemoglobin in blood gases or clinical signs of cyanide poisoning"}
    ]}
  ]
}
